In PubChem BioAssay AID651630 (Sanford-Burnham Center for Chemical Genomics, 2012):

Key:
DAPI = assay: TAG lipid buildup inhibition with viability readout – cell-based, panel, Nile Red and DAPI fluorescence, H9c2, dose response (AID 651630); conditions: H9c2 cells, DAPI nuclear fluorescence (cytotoxicity counter-readout), oleic acid;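 also: cells exposed to compound overnight before fixation and staining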
TAG = assay: as above; conditions: H9c2 cells, Nile Red TAG fluorescence, oleic acid

Row | SMILES | IC50 cytotoxicity (DAPI nuclear signal decrease) (DAPI; run 1) [nM] | IC50 cytotoxicity (DAPI nuclear signal decrease) (DAPI; run 2) [nM] | IC50 (TAG; mean of runs) [nM] | IC50 (TAG; run 1) [nM] | IC50 (TAG; run 2) [nM]
1 | CC(=O)NC(SC(=S)N(CC(C)C)CC(C)C)C(Cl)(Cl)Cl (stereo not given) | 25000 | 25000 | 1580 | 2380 | 780
2 | CCC(C)N(CC(C)C)C(=S)SC(NC(C)=O)C(Cl)(Cl)Cl (stereo not given) | 25000 | 25000 | < 780 | 780 | 780
